Test system: C57BL/6 mice
Experiment: Antibody response against human serum albumin in mice (anti-HSA IgG ELISA end-point titers)
Assay type: in vivo
Settings: HSA 1 μg + polynucleotide 10 μg in saline, no particulate carrier, I.M. day 0 and 21, sera day 29-30

GGGTGGIII (DNA GGGTGGNNN; Three 3' inosines, sugar and linkages not given here, further chemistry not given here) [SEQ ID NO: 7, 5′-OH, 3′-OH non-DNA base-containing polynucleotide]
Anti-HSA IgG antibody titers (head: IgG total Anti-H1N1 titers), Mean: 168

GGGTGGNebNebNeb (DNA GGGTGGNNN; Three 3' nebularines, sugar and linkages not given here, further chemistry not given here) [SEQ ID NO: 5, 5′-OH, 3′-OH non-DNA base-containing polynucleotide]
Anti-HSA IgG antibody titers (head: IgG total Anti-H1N1 titers), Mean: 14516

GGGTGGUUU (DNA GGGTGGNNN; Three 3' uracils, sugar and linkages not given here, further chemistry not given here) [SEQ ID NO: 9, 5′-OH, 3′-OH non-DNA base-containing polynucleotide]
Anti-HSA IgG antibody titers (head: IgG total Anti-H1N1 titers), Mean: 0

GIG (DNA GNG; Central inosine, sugar and linkages not given here, further chemistry not given here) [SEQ ID NO: 6, 5′-OH, 3′-OH non-DNA base-containing polynucleotide]
Anti-HSA IgG antibody titers (head: IgG total Anti-H1N1 titers), Mean: 4003

GNebG (DNA GNG; Central nebularine, sugar and linkages not given here, further chemistry not given here) [SEQ ID NO: 4, 5′-OH, 3′-OH non-DNA base-containing polynucleotide]
Anti-HSA IgG antibody titers (head: IgG total Anti-H1N1 titers), Mean: 5662

GUG (DNA GNG; Central uracil in DNA, sugar and linkages not given here, further chemistry not given here) [SEQ ID NO: 8, 5′-OH, 3′-OH non-DNA base-containing polynucleotide]
Anti-HSA IgG antibody titers (head: IgG total Anti-H1N1 titers), Mean: 2

IIGTII [SEQ ID NO: 3]
Anti-HSA IgG antibody titers (head: IgG total Anti-H1N1 titers), Mean: 364

NebGGTGNeb (DNA NGGTGN; Nebularine at both ends, sugar and linkages not given here, further chemistry not given here) [SEQ ID NO: 1, 5′-OH, 3′-OH non-DNA base-containing polynucleotide]
Anti-HSA IgG antibody titers (head: IgG total Anti-H1N1 titers), Mean: 88

UUGTUU [SEQ ID NO: 2]
Anti-HSA IgG antibody titers (head: IgG total Anti-H1N1 titers), Mean: 0

From patent US20110111016A1, “NON-DNA BASE-CONTAINING POLYNUCLEOTIDE COMPOSITIONS AND THEIR USE FOR THE MODULATION OF IMMUNE RESPONSES” (priority 2009, published 2011)
